According to paper PMC7000712, “A kinetic method for measuring agonist efficacy and ligand bias using high resolution biosensors and a kinetic data analysis framework” (Scientific Reports, 2020):
“Also recorded” adds a separate entry of the source.

Experiments:
angiotensin AT1 receptor [1] = experiment: Bias ratio, arrestin recruitment over Ca^2+ mobilization (kτ ratio); format: cell-based
Description: The arrestin, DAG and Ca^2+ data are shown in Fig. 5, for a maximally-stimulating concentration of the five ligands (32 μM). It is immediately obvious that curve shapes are different for the pathways - an association exponential curve defines arrestin recruitment (Fig. 5a) and a rise-and-fall curve defines DAG and Ca^2+ signaling (Fig. 5b,c). The kinetic analysis method was designed to handle this scenario - the initial rate can be extracted from different curve shapes[24],[25]. The initial rate of arrestin recruitment was quantified as described above, by multiplying the rate constant by the plateau of the association exponential fit, and the resulting kτ values are in Table 2. For DAG and Ca^2+, a rise-and-fall exponential equation was applied: y=C/kobs1−kobs2(e^−kobs2t−e^−kobs1t) kτ is equal to the value of C in this equation[24],[25]. The equation assumes two regulation mechanisms are in operation, corresponding to the two exponent terms. (These are most likely receptor desensitization and response degradation for DAG, and precursor depletion and response degradation for the shorter-term Ca^2+ response[25]). […]
The final, quantitative step in the bias assessment is the bias ratio calculation. […] In Fig. 6, the bias factor from the kτ ratio was compared with the bias factor calculated previously using a validated method, the operational model approach.

angiotensin AT1 receptor [2] = details: cited from earlier work
Description: We next evaluated four synthetic AT1 receptor ligands, SII, TRV120055, TRV120045 and TRV120026[40],[47]. (For clarity, the name of the last three compounds is abbreviated to TRV055, TRV045 and TRV026). These compounds were developed in SAR campaigns aiming to identify biased ligands for the AT1 receptor. […] Numerous methods and scales have been developed and successfully applied[8],[47],[53]–[59]. One approach is to compare ligand efficacy, i.e. the capacity of the agonist-occupied receptor to generate the signal. kτ provides such an efficacy value, being the initial rate of signal generation by the agonist-occupied receptor. Here kτ is used to assess signaling bias of the AT1 receptor ligands described above. These ligands have been reported to vary in their bias ... || The final, quantitative step in the bias assessment is the bias ratio calculation. This was done by dividing the normalized kτ value for arrestin recruitment by that for Ca^2+. […] Three ligands were arrestin-biased, evidenced by their arrestin/Ca^2+ kτ ratio being greater than 1 (3.1, 3.0 and 4.2 for TRV045, TRV026 and SII, Table 2). […] For example, SII is an established arrestin-b ...

angiotensin AT1 receptor [3] = molecular target: T1, angiotensin AT1 receptor (Homo sapiens, UniProt P30556); experiment: Arrestin-3 (β-arrestin2) mNeonGreen biosensor recruitment, AT1 receptor, HEK 293 T cells (time course); format: cell-based; parameters: The unmodified receptor can be used, providing estimates of authentic rather than forced coupling to arrestin; host or cells: HEK 293 T cells, BacMam transduction, CMV promoter
Description: We and others have developed fluorescent biosensors in which intrinsically fluorescent protein sensors have been incorporated. (Three examples used in this study are R-GECO[22] for Ca^2+, Downward DAG for DAG and cADDis for cAMP[21]). The protein sensors have been engineered to be conformationally-sensitive, such that interaction with the signaling molecule of interest changes the optical properties, enabling the interaction to be detected as a change of fluorescence intensity. Since the proteins are intrinsically fluorescent, no chemical tagging or substrate addition is necessary to generate the optical signal. Here this approach was used to develop a biosensor of receptor-arrestin interaction (Fig. 1a).
We used the kτ method to quantify the kinetics of arrestin recruitment of five AT1 receptor ligands with known varying degrees of arrestin recruitment and bias. The method for quantifying kτ is as follows (illustrated schematically in Supplementary Fig. S5). […] From these fits the fitted parameter values were taken for Plateau and kobs. These values were then multiplied together. […] The data were then fit to the sigmoid curve equation, for example the “log(agonist) vs. response–Variable slope” equation in Prism[46]. From this fit kτ was obtained - it is the value of the asymptote. More precisely, kτ is the Plateau x kobs value for a maximally-effective concentration of ligand.
All that is required is a time course of response measurement at a single, maximally-stimulating concentration of ligand (maximally-stimulating at all time points). […] The data were fit to the association exponential equation to determine Plateau and kobs. kτ was then calculated - it is the Plateau multiplied by kobs for a maximally-stimulating concentration of ligand, as explained in the Appendix.
The first biosensors that positioned analyte binding domains in this position used a circularly permuted version of the fluorescent protein, and include the GCaMP and GECO Ca^2+ sensors, the upward and downward DAG sensors, and the caDDis cAMP sensor[21],[22]. More recently it has become clearer that if the termini of the analyte binding domain are close to one another, then the entire binding domain can be inserted into the 7th stave of the fluorescent protein without having to circularly permute the fluorescent protein[60].
HEK 293 T cells were cultured in Eagle’s minimum essential media (EMEM) supplemented with 10% fetal bovine serum (FBS) and penicillin-streptomycin at 37 °C in 5% CO2. For BacMam transduction, cells were resuspended in media at a density of 52,000 cells per 100 μL. […] For each experiment 4.24 × 10^8 viral genes of arrestin virus were added to each well. For multiplex experiments, 4.79 × 10^8 viral genes of the Red DAG sensor or 6.18 × 10^8. Viral genes of the Red cADDis (cAMP) sensor were added with the arrestin sensor. For experiments with the R-GECO sensor, 8.46 × 10^8 viral genes were added to each well. The viruses carrying the AT1 and V2 receptors were added such that 2.12 × 10^8 and 3.04 × 10^8 viral genes went into each well, respectively. For the β2-adrenoceptor experiment, 4.28 × 10^8 viral genes for the receptor and 2.13 × 10^8 viral genes of GPCR kinase 2 were added to each well.

angiotensin AT1 receptor [4] = molecular target: T1, angiotensin AT1 receptor; experiment: Diacylglycerol production, Red Downward DAG sensor, AT1 receptor, HEK 293 T cells; format: cell-based; parameters: The unmodified receptor can be used, providing estimates of authentic rather than forced coupling to arrestin; host or cells: HEK 293 T cells, BacMam transduction, CMV promoter; details: 32 μM
Description: (§1) Biased agonism quantification relates the capacity of a ligand to activate one pathway relative to one or more other pathways[9]–[12]. Numerous methods and scales have been developed and successfully applied[8],[47],[53]–[59]. One approach is to compare ligand efficacy, i.e. the capacity of the agonist-occupied receptor to generate the signal. kτ provides such an efficacy value, being the initial rate of signal generation by the agonist-occupied receptor. Here kτ is used to assess signaling bias of the AT1 receptor ligands described above. […] In this study, G-protein signaling and arrestin recruitment was measured using the same fluorescent biosensor assay modality, enabling near-identical conditions to be employed in comparing the pathways. The Gq pathway was quantified at the level of diacylglycerol using the Red Downward DAG sensor[21] (Fig. 5b), and, one step downstream, Ca^2+ mobilization measured using the R-GECO sensor[22] […]
(§2) HEK 293 T cells were cultured in Eagle’s minimum essential media (EMEM) supplemented with 10% fetal bovine serum (FBS) and penicillin-streptomycin at 37 °C in 5% CO2. […] Thirty minutes prior to fluorescence plate reader or imaging experiments, the media in each well was replaced with 150 μL of Dulbecco’s phosphate buffered saline (DPBS) supplemented with Ca^2+ (0.9 mM) and Mg^2+ (0.5 mM). […]

angiotensin AT1 receptor [5] = molecular target: T1, angiotensin AT1 receptor; experiment: Ca^2+ mobilization, R-GECO sensor, AT1 receptor, HEK 293 T cells; format: cell-based; parameters: The unmodified receptor can be used, providing estimates of authentic rather than forced coupling to arrestin; host or cells: HEK 293 T cells, BacMam transduction, CMV promoter; details: 32 μM
Description: as §1, §2

[6] = 32 µM, association exponential fit, Supplementary Table S1

Arrestin/Ca^2+ kτ ratio (% AngII ratio) (angiotensin AT1 receptor [1]; 32 μM, kτ normalized to AngII for arrestin divided by that for Ca^2+): 3.0
signaling bias, arrestin vs Gq (in words) (angiotensin AT1 receptor [1]; kτ ratio arrestin/Ca^2+, relative to AngII): arrestin-biased
Plateau (angiotensin AT1 receptor [3]; [6]): 0.40 ± 0.01 NFU
kobs (angiotensin AT1 receptor [3]; [6]): 0.62 ± 0.08 min⁻¹
t1/2 of arrestin recruitment (angiotensin AT1 receptor [3]; 32 µM, calculated from kobs (t1/2 = 0.693/kobs)): 1.15 ± 0.13 min
kτ, initial rate of arrestin recruitment (concentration-response) (angiotensin AT1 receptor [3]; concentration-response method, asymptote of Plateau × kobs vs concentration, mean ± s.e.m., three experiments (SII n = 2), NFU, normalized fluorescence units, HEK 293 T, DPBS, Biotek Synergy Mx): 0.25 ± 0.03 NFU.min^−1
pKA (angiotensin AT1 receptor [3]; ligand affinity from L50 of Plateau × kobs vs concentration curve, mean ± s.e.m., three experiments (SII n = 2)): 6.76 ± 0.05
kτ, arrestin (single concentration) (angiotensin AT1 receptor [3]; single maximally-stimulating concentration 32 μM, Plateau × kobs, mean ± s.e.m., three experiments (SII n = 2)): 0.25 ± 0.03 NFU.min^−1
kτ, calcium (angiotensin AT1 receptor [5]; C of rise-and-fall exponential fit with drift, mean ± s.e.m., three experiments): 0.46 ± 0.08 NFU.min^−1
Compound: CNCC(=O)N[C@@H](CCCNC(=N)N)C(=O)N[C@H](C(=O)N[C@@H](Cc1ccc(O)cc1)C(=O)N[C@@H](Cc1ccc(O)cc1)C(=O)N[C@@H](Cc1c[nH]cn1)C(=O)N1CCC[C@H]1C(N)=O)C(C)C [TRV026]
signaling bias, arrestin vs G-protein (in words, literature) (angiotensin AT1 receptor [2]): biased for arrestin recruitment over G-protein signaling
arrestin recruitment efficacy at the initial rate (in words) (angiotensin AT1 receptor [3]; initial rate, kτ method): intermediate between that of TRV055 and SII
DAG response (in words) (angiotensin AT1 receptor [4]): no response was detectable; also recorded: not detectable
Ca^2+ / G-protein response (in words) (angiotensin AT1 receptor [5]): Responses to these peptides were observed
